From PubChem BioAssay (Tox21)
The entries are a selection whose mix differs from that of the whole data set. Inconclusive results are not listed. Activity calls are given as the source filed them. Calls follow the shape of the dose curve; as a rule, active = well fitted activation curve with a large enough effect in the repeat runs; inconclusive = weak or mixed curves; inactive = flat fitted curve, though single readings scatter.
% is scaled to controls: 0 for no effect and ±100 for the full control effect; potency is read from the fitted curve at half-maximal effect.

Assay: A CellTox Green Cytotoxicity Assay to monitor cytotoxicity in HEK293 cells - 32 hour (AID 1224881); also: nearly all actives have a fitted effect of over 40% in size
Details: CellTox Green fluorescence; series mostly up to 76.8 µM; cytotoxicity increase: at the top concentration
Text: National Center for Advancing Translational Sciences [NCATS]
NIH Chemical Genomics Center [NCGC]
U.S. Environmental Protection Agency [EPA]
National Institutes of Environmental Health Sciences [NIEHS]
National Toxicology Program [NTP]
Cell-based models are critical for drug discovery. Determining the natural cytotoxic effects resulting from test compounds is an essential research activity. A CellTox Green Cytotoxicity Assay to monitor cytotoxicity in real time of continues cell culture during 40 hours of the compound treatment was used to screen Tox21 10K library compounds in Hek293 cells. CellTox Green Cytotoxicity Assay is a nonlytic, homogeneous, biofluorescent method to measure cytotoxicity in cell culture after experimental manipulation. The assay system uses a proprietary asymmetric cyanine dye that is excluded from viable cells but preferentially stains the dead cell's DNA. […] Viable cells produce no appreciable increases in fluorescence. Therefore, the fluorescence signal produced by the binding interaction with dead cell DNA is proportional to cytotoxicity.
The mixture of Hek293 cell suspension and reagents were dispensed at 600cells/6 ul/well in 1536-well tissue culture treated black solid bottom plates using a Multidrop dispenser. After the assay plates were incubated at a 37 C/5% CO2 incubator for 5 hours, 23 nL of compounds dissolved in DMSO, positive and negative controls was transferred to the assay plate by a pintool work station. The plates were incubated at 37 C for 40 hours. The fluorescence intensity were measured at 0h, 8h, 16h, 24h, 32h and 40h time points using ViewLux plate reader during compound treatment.
With `CCNC(C)Cc1ccc2c(c1)OCO2` (stereo not drawn) the “cytotoxicity increase” value was inactive: -1.89%.
For `CCOC(=O)Cl`, the “cytotoxicity increase” value was inactive: -1.43%.
In the case of `CCC(C)(OOC(C)(C)C)OOC(C)(C)C`, the cytotoxicity increase was inactive: -11.7% [at 15.8 µM].
In the case of `O=[P+](Oc1ccccc1)Oc1ccccc1`, the “cytotoxicity increase” value was inactive: -4.33%.
With `CN(C(=O)Cc1ccc(Cl)c(Cl)c1)[C@H]1CC[C@@]2(CCCO2)C[C@@H]1N1CCCC1` the “cytotoxicity increase” value was inactive: -17.7% [at 35.3 µM].
With `NC(=O)Nc1ccc([As](=O)(O)O)cc1` the Potency was “inactive”.
In the case of `CC(C)OP(=S)(OC(C)C)SCCNS(=O)(=O)c1ccccc1`, the “cytotoxicity increase” value was inactive: -5.95%.
For `ClP(Cl)c1ccccc1`, the “cytotoxicity increase” value was inactive: -2.73%.
With `O=C(Cl)OCCOC(=O)Cl` the “cytotoxicity increase” value was inactive: -7.51%.
With `O=P(Cl)(Oc1ccccc1)Oc1ccccc1` the “cytotoxicity increase” value was inactive: 3.51%.
For `O=C(Cl)Oc1ccccc1`, the “cytotoxicity increase” value was inactive: -8.95%.
In the case of `O=P(Cl)(Cl)c1ccccc1`, the “cytotoxicity increase” value was inactive: -23.8%.
With `Cc1cc([N+](=O)[O-])c(O)c([N+](=O)[O-])c1` the “cytotoxicity increase” value was inactive: -12.8%.
For `O=[N+]([O-])c1ccc([N+](=O)[O-])cc1`, the “cytotoxicity increase” value was inactive: -25%.
With `CN(C(=O)Cc1ccccc1)[C@H]1CC[C@@]2(CCCO2)C[C@@H]1N1CCCC1` the “cytotoxicity increase” value was inactive: 5.63% [at 35.3 µM].
In the case of `O=[p+]1oc2ccccc2c2ccccc21` (stereo not drawn), the “cytotoxicity increase” value was inactive: 16.6%.
With `CCCCC(CC)CO[P+](=O)OCC(CC)CCCC` (stereo not drawn) the “cytotoxicity increase” value was inactive: -13.1%.
In the case of `CCCCOP(OCCCC)OCCCC`, the “cytotoxicity increase” value was inactive: -0.383%.
In the case of `CC(C)CCCCCCCOP(OCCCCCCCC(C)C)Oc1ccccc1`, the “cytotoxicity increase” value was inactive: 1.97%.
With `COP(=S)(Cl)OC` the “cytotoxicity increase” value was inactive: -1.34%.
With `CCOP(=S)(CC)Sc1ccccc1` (stereo not drawn) the “cytotoxicity increase” value was inactive: 0.639%.
With `CN(N=O)C(=N)N[N+](=O)[O-]` the “cytotoxicity increase” value was inactive: 10.8%.
In the case of `CCCCO[P+](=O)OCCCC`, the Potency was “inactive”.
With `CN(C(=O)Cc1cccc2occc12)[C@H]1CC[C@@]2(CCCO2)C[C@@H]1N1CCCC1` the “cytotoxicity increase” value was inactive: -10.7%.
In the case of `COC(=O)Cl`, the “cytotoxicity increase” value was inactive: 1.18%.
With `O=[N+]([O-])c1ccc(S(=O)(=O)O)c([N+](=O)[O-])c1` the “cytotoxicity increase” value was inactive: -2.05%.
With `Cc1cc([N+](=O)[O-])cc([N+](=O)[O-])c1O` the Potency was “inactive”.
With `O=[As]c1ccccc1` (stereo not drawn) the Potency was active: 616 nM.
